The source of these data is patent publication US20090155869A1, “ENGINEERED MICROORGANISMS FOR PRODUCING N-BUTANOL AND RELATED METHODS” (Gevo, Inc., priority 2006, published 2009).

This data set relates to E. coli DH5a cells.

With n-butanol, for the setting “0.5% n-butanol in LB medium”, the growth rate result is “approximately halved” and the “max OD600” value is recorded as “approximately halved”. Also, under “1% n-butanol in LB medium”, the growth rates entry was “could not be quantified” and the “max OD600, fold less” value was “about 40 fold”.
